{"sequences": {"note": "Protein sequences, listed by entry. Tags and fused reporters are not part of them. Residues count along the entry.", "UniProt P11362, 22-822": "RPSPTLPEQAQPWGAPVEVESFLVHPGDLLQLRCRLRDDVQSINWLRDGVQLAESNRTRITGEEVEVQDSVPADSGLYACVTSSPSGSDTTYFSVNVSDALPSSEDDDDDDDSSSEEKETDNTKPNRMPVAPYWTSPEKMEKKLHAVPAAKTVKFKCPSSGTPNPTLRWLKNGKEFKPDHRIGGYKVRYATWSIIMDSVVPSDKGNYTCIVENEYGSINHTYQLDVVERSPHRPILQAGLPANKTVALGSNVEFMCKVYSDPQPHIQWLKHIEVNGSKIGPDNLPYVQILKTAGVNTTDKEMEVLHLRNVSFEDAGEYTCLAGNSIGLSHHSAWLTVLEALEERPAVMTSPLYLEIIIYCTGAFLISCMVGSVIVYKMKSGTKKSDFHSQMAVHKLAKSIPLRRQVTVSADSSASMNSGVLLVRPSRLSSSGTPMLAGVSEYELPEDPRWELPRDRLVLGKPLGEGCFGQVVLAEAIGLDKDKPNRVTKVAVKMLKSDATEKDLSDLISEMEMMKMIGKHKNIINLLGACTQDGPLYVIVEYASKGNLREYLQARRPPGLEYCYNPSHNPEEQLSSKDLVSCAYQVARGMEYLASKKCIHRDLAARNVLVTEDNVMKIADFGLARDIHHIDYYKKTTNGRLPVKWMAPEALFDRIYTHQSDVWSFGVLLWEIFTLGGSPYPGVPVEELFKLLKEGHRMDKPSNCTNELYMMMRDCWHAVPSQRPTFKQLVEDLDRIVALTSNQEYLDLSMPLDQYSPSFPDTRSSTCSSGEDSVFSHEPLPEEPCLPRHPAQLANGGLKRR"}, "source": "patent US10988456B2", "about": "“O-aminoheteroaryl alkynyl-containing compound, preparation method therefor, and use thereof” (SHANGHAI INSTITUTE OF MATERIA MEDICA, CHINESE ACADEMY OF …, priority 2017, dated 2021)", "key": {"KDR": {"target": "KDR (Homo sapiens, UniProt P35968)", "assay": "Inhibition of receptor tyrosine kinase activity at molecular level (ELISA, Poly(Glu,Tyr)4:1 substrate phosphorylation)", "type": "biochemical", "conditions": "10 nM compound; average of two independent experiments", "description": "(§1) Enzyme reaction substrate Poly(Glu, Tyr)4:1 was diluted with potassium-free PBS (10 mM sodium phosphate buffer, 150 mM NaCl, pH 7.2-7.4) to 20 μg/mL. […] The reaction was conducted under 37° C. for 12-16 hours. After the liquid was removed from the wells, the plate was washed three times with 200 μL/well of T-PBS (PBS containing 0.1% Tween-20), each for 5 minutes. The enzyme plate was dried in 37° C. dryer for 1-2 hours.\n(§2) 50 μL ATP solution diluted with buffer (50 mM HEPES pH 7.4, 50 mM MgCl2, 0.5 mM MnCl2, 0.2 mM Na3VO4, 1 mM DTT) to a final concentration of 5 μM was added into each well. The compound was diluted with DMSO to a suitable concentration (1 μL/well) or the well contained the corresponding concentration of DMSO (negative control well) Then various kinase recombinant proteins diluted with 49 μL of reaction buffer was added to initiate the reaction. Each experiment required duplicate enzyme-free control well. The reaction was carried out for 1 hour on a 37° C. Shaker (100 rpm). The plate was washed three times with T-PBS. […] The reaction was quenched with 2M H2SO4 (50 μL/well), and read at 490 nm using a tunable microplate reader SPECTRA MAX 190.\n(§3) The inhibition ratio of the sample was determined by the following formula: […]\n(§4) The IC50 values were obtained via four-parameter regression analysis using the software supplied with the microplate reader."}, "FGFR1": {"target": "FGFR1 (Homo sapiens, UniProt P11362)", "assay": "Inhibition of receptor tyrosine kinase activity at molecular level (ELISA, Poly(Glu,Tyr)4:1 substrate phosphorylation)", "type": "biochemical", "conditions": "10 nM compound; average of two independent experiments", "description": "as §1, §2, §3, §4"}}, "data": [{"smiles": "C[C@@H](Oc1ccc2[nH]nc(/C=C/c3cnn(CCO)c3)c2c1)c1c(Cl)cncc1Cl", "note": "[LY2874455, reference compound]", "values": [{"measurement": "10 nM inhibition ratio KDR", "setting": "KDR", "result": 91.6}, {"measurement": "10 nM inhibition ratio FGFR1", "setting": "FGFR1", "result": 97.5}]}]}
